Measured values as given in PubChem BioAssay AID488847 (NMMLSC, 2010).
The entries are a selection whose mix differs from that of the whole data set. Some salts or complexes appear as unconnected parts, following the source record. Calls of active or inactive are those of the source.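 How the source made its calls: active means inhibition of aptamer binding above 40%, roughly 3 SD of noise, on plates passing a quality check; inactive means the rest.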

Protein sequences, listed by entry. Tags and fused reporters are not part of them.
UniProt P25098, whole entry: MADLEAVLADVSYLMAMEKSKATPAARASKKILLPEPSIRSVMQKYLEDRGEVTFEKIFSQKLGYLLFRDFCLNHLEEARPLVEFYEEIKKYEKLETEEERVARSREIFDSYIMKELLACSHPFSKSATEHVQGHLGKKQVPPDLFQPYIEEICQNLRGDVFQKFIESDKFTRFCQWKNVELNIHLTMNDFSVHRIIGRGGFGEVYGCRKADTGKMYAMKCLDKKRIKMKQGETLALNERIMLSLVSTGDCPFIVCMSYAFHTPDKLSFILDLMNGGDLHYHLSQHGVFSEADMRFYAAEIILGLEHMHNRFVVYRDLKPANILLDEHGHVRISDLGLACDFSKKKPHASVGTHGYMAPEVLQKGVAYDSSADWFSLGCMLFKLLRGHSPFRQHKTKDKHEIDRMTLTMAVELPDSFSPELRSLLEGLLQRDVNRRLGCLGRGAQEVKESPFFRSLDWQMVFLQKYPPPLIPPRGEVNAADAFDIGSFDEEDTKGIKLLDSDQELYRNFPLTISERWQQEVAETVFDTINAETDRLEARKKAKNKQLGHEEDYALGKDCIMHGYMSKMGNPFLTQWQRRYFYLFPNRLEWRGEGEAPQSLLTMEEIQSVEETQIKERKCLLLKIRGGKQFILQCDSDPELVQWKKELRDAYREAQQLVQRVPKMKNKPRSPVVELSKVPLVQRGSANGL

Target: Beta-adrenergic receptor kinase 1 (Homo sapiens) (UniProt P25098)
Test: compounds blocking aptamer binding on GRK2 – biochemical, human GRK2, bead flow cytometry, HTS, primary screen (AID 488847);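 on inhibition of aptamer binding: median bead fluorescence of bound FAM aptamer so fluorescent compounds give negative values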
Details: FAM-aptamer displacement from GRK2, at 10 µM; hits give high values

Row | SMILES | inhibition of aptamer binding
1 | O=[N+]([O-])c1cc([N+](=O)[O-])c(NCC2CCS(=O)(=O)C2)c([N+](=O)[O-])c1 (stereo not given) | inactive: 0%
2 | O=[N+]([O-])c1ccc(OP2(=O)COCCO2)cc1 (stereo not given) | inactive: 0%
3 | CC(=O)NC(SC(=S)N(C)C)C(Cl)(Cl)Cl (stereo not given) | inactive
4 | O=C(OC1CN2CCC1CC2)c1cccc(Cl)c1 (stereo not given) | inactive
5 | Nc1ccc([As](=O)(O)c2ccc([N+](=O)[O-])cc2)cc1 | inactive
6 | O=C(NC1CCS(=O)(=O)C1)NP(=S)(Oc1ccccc1)Oc1ccccc1 (stereo not given) | inactive
7 | COc1ccc(OP(C)(=O)Nc2ccc(SC(F)(F)F)cc2)cc1 (stereo not given) | inactive: 0%
8 | CCOC(=O)c1ccc(NP(C)(=O)Oc2ccc(F)cc2)cc1 (stereo not given) | inactive: 9%
9 | CCC(=O)N1C2C3N(C(=O)CC)C1C1N(C(=O)CC)C(C(N1C(=O)CC)N3C(=O)CC)N2C(=O)CC | inactive
10 | CCN(CC)CCCOC(=O)C(O)(c1ccccc1)C1CCCCC1 (stereo not given) | inactive
11 | COC(=O)c1cc2c(s1)N=C(c1ccccc1)N(C)P2(=O)N1CCOCC1 (stereo not given) | inactive
12 | CC(=O)NC(SC(=S)N(CC(C)C)CC(C)C)C(Cl)(Cl)Cl (stereo not given) | inactive
13 | CC(NC(=O)COC(=O)C(O)(c1ccccc1)c1ccccc1)c1ccccc1 (stereo not given) | inactive
14 | O=[N+]([O-])c1cc([N+](=O)[O-])c(OC2CCCCC2O)c([N+](=O)[O-])c1 (stereo not given) | inactive: 3%
15 | CCCCCOc1ccc(NP(C)(=O)Oc2ccc(Cl)cc2Cl)cc1 (stereo not given) | inactive: 2%
16 | CP(=O)(Nc1ccccc1)Oc1ccc(F)cc1 (stereo not given) | inactive: 0%
17 | CCOc1ccc(C2=NCC(CBr)S2)cc1 (stereo not given) | inactive
18 | CC(C)(C)C(=O)NC(Sc1ccccc1)C(Cl)(Cl)Cl (stereo not given) | inactive
19 | CC(C)c1ccc(OP(C)(=O)Nc2ccc(SC(F)(F)F)cc2)cc1 (stereo not given) | inactive: 0%
20 | CP(=O)(Nc1ccccc1F)Oc1ccccc1 (stereo not given) | inactive: 0%
21 | O=C(OCCN1CCN(CCOCc2ccccc2)CC1)C(O)(c1ccccc1)c1ccccc1 | inactive: 0%
22 | Cc1ccccc1CN(C)C(=O)COC(=O)C(O)(c1ccccc1)c1ccccc1 | inactive
23 | C[C@H]1OP(=O)(Oc2ccccc2)C[C@@H]2O[C@@H]21 (stereo not given in full) | inactive
24 | O=C(OC1CN2CCC1CC2)c1ccc([N+](=O)[O-])cc1 (stereo not given) | inactive: 3%
25 | COc1ccc2c(c1O)-c1c(O)c(OC)cc3c1[C@H](C2)[N+](C)(C)CC3.O=[N+]([O-])c1cc([N+](=O)[O-])c([O-])c([N+](=O)[O-])c1[O-] | inactive: 4%
